ChEMBL document CHEMBL1139629, “Discovery of diphenylcarbamate derivatives as highly potent and selective IP receptor agonists: orally active prostacyclin mimetics. Part 3” (Bioorg Med Chem Lett, 2005)

Tests used:
[1] = tested on: Canis familiaris; assay: Bioavailability in dog after intravenous administdogion at 0.32 mg/kg dose; settings: in vivo, read-out: Ba
[2] = tested on: Canis familiaris; assay: Half life in dog after intravenous administdogion at 0.32 mg/kg dose; settings: in vivo
[3] = tested on: Canis familiaris; assay: Maximum concentdogion in dog after oral administdogion at 0.32 mg/kg dose; settings: in vivo

bioavailability [1]: 98% | half-life [2]: 7.94 h | Cmax [3]: 305 ng/mL
Compound: O=C(O)COc1cccc2c1CC[C@](O)(COC(=O)N(c1ccccc1)c1ccccc1)C2
